From EP1005446B1, “N-AROYLPHENYLALANINE DERIVATIVES” (priority 1997, dated 1999)
pIC50: −log10 of the molar value.

By UniProt entry, the sequences of proteins in these tests, tags left out. Residues count along the entry.
UniProt P05556, 21-798 limits assumed: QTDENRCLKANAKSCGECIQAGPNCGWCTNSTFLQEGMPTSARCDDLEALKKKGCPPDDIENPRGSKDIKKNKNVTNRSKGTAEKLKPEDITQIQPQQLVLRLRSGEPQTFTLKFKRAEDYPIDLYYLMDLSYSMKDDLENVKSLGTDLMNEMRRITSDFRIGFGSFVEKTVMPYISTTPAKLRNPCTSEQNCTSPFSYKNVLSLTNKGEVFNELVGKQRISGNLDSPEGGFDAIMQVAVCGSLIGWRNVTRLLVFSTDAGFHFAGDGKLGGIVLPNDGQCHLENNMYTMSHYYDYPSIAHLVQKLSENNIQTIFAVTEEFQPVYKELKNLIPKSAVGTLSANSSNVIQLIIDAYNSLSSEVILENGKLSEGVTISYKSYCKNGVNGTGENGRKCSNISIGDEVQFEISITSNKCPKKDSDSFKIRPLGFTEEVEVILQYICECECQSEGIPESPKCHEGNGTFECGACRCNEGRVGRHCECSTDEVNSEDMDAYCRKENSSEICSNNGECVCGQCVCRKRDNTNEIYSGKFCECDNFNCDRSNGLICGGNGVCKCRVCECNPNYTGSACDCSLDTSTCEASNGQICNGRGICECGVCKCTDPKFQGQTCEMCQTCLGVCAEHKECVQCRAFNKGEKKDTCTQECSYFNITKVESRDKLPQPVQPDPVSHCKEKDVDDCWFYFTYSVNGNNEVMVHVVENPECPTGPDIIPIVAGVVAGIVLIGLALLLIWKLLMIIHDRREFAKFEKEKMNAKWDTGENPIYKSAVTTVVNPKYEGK
UniProt P13612, 34-1032 limits assumed: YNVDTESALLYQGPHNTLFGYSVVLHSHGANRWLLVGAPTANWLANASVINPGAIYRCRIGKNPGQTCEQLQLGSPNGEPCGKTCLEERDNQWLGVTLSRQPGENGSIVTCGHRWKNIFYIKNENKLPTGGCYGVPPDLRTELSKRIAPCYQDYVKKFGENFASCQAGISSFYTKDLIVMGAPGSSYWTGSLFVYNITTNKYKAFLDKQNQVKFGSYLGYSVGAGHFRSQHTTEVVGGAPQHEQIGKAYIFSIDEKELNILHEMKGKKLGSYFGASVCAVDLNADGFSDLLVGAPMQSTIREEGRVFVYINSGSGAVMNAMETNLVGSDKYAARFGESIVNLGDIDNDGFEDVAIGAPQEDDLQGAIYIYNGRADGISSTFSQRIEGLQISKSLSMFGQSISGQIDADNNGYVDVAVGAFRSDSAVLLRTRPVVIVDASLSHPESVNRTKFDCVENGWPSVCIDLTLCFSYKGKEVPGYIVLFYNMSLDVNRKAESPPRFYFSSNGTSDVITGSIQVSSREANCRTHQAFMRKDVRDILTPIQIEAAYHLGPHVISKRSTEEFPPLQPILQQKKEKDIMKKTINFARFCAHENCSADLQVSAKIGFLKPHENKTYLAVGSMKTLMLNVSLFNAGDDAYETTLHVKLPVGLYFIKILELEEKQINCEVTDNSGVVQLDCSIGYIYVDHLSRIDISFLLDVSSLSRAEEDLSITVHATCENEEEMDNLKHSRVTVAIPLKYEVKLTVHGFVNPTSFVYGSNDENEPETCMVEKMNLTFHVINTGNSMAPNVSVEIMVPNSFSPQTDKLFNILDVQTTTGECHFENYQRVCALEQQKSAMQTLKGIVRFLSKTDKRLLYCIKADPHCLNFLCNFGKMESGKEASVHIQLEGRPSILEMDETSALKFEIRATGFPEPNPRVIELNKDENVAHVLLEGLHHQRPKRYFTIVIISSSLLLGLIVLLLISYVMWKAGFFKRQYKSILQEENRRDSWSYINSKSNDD

Tests used:
VLA-4 (α4β1 integrin) [1] = target: T1, VLA-4 (α4β1 integrin) (Homo sapiens, UniProt P05556+P13612); assay: VLA-4 / VCAM-1 Screening Assay (solid-phase, dual antibody ELISA); details: read-out: IC50 nM, inhibition of binding of Ramos cell-derived VLA-4 to immobilized recombinant human VCAM-1
VLA-4 (α4β1 integrin) [2] = target: T1, VLA-4 (α4β1 integrin); assay: Ramos (VLA-4) / VCAM-1 Cell-Based Screening Assay (Ramos-VCAM-1 cell adhesion assay); details: read-out: IC50 in Ramos Cell Based Assay; Ramos cells binding to immobilized VCAM-1

Row | SMILES | IC50 (VLA-4 (α4β1 integrin) [1]) [nM] | also measured
1 | COCCC1(C(=O)N[C@@H](Cc2ccc(N3C(=O)[C@H](CC(C)C)N(C(C)=O)C3c3ccccc3)cc2)C(=O)O)CCCC1 (single isomer, unassigned) [129] | 153 | –
2 | COc1ccc(C[C@@H]2C(=O)N(c3ccc(C[C@H](NC(=O)C4(CCNC(C)=O)CCCC4)C(=O)O)cc3)C(c3ccccc3)N2C(=O)CCC(=O)O)cc1 (single isomer, unassigned) | – | pIC50 (VLA-4 (α4β1 integrin) [2]): 8.74
3 | O=C(Nc1ccc(C[C@H](NC(=O)C2(c3ccccc3)CCCC2)C(=O)O)cc1)c1ccccc1 | – | IC50 (VLA-4 (α4β1 integrin) [1]; tested form: Na salt): 22.6 nM
4 | O=C(Nc1ccc(C[C@H](NC(=O)C2(c3ccccc3)CCCC2)C(=O)O)cc1)c1ccc[n+]([O-])c1 | – | IC50 (VLA-4 (α4β1 integrin) [1]; tested form: Na salt): 3.6 nM
5 | Cc1cc(C)c(S(=O)(=O)Nc2ccc(C[C@H](NC(=O)C3(C)CC3(Cl)Cl)C(=O)O)cc2)c(C)c1 (stereo partly drawn) | 43 | –

The remaining compounds from weak to strong by IC50 (VLA-4 (α4β1 integrin) [1]), led by results:

Row | IC50 (VLA-4 (α4β1 integrin) [1]) [nM] | SMILES | also measured
6 | 17 | COCCC1(C(=O)N[C@@H](Cc2ccc(N3C(=O)[C@@H](CC(C)C)N(C(C)=O)C3c3ccccc3)cc2)C(=O)O)CCCC1 (single isomer, unassigned) [135] | –
7 | 13.6 | CC1(C)C2CCC1(C)C(C(=O)O)C2C(=O)N[C@@H](Cc1ccc(NC(=O)c2ccnc3ccccc23)cc1)C(=O)O (stereo partly drawn) | –
8 | 7.3 | O=C(CCN1CCCCC1)Nc1ccc(C[C@H](NC(=O)C23CC4CC(CC(C4)C2)C3)C(=O)O)cc1 | –
9 | 5 | COCCC1(C(=O)N[C@@H](Cc2ccc(N3C(=O)[C@H](CC(C)C)N(C(C)=O)C3c3ccccc3)cc2)C(=O)O)CCCC1 (single isomer, unassigned) [Example 128] | –
10 | 2.5 | O=C(Cc1ccccc1)NCCC1(C(=O)N[C@@H](Cc2ccc(NC(=O)c3c(Cl)cccc3Cl)cc2)C(=O)O)CCCC1 | –
11 | 0.96 | COc1ccc(CC2(C(=O)N[C@@H](Cc3ccc(NC(=O)CCN4CCCCC4)cc3)C(=O)O)CCCC2)cc1 | –
12 | 0.19 | COCCC1(C(=O)N[C@@H](Cc2ccc(N3C(=O)[C@@H](CC(C)C)N(C(C)=O)C3c3ccccc3)cc2)C(=O)O)CCCC1 (single isomer, unassigned) [134] | –
